The list shows a part of the results, in another mix than the full data. Potency and affinity values are given separately. Active and inactive are the calls of the source. No rule for the calls is given here.
assay: Inhibition of PhoP regulon, Salmonella typhi GFP reporter cells, confirmation, 4 h (AID 1850); settings: Salmonella Typhi PhoP-promoter GFP reporter, fluorescence, at 50 µM, hits give high values;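 also: 0% = induced wells with vehicle and 100% = uninduced wells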

Compound	inhibition
O=C(NC(Sc1ccncn1)C(Cl)(Cl)Cl)c1ccccc1 (centres undefined)	inactive: 2.31%
Cc1c2non([O-])c-2c(C)[n+](=O)[n+]1[O-]	inactive: 4.65%
Oc1ccccc1CNc1ccccn1	inactive: -2.68%
Nc1cc(N)c2nonc2c1[N+](=O)[O-]	inactive: -7.21%
CC(C)CC(=O)NC(Sc1ccc(Cl)cc1)C(Cl)(Cl)Cl (centres undefined)	inactive: -4.35%
CN1CCCC(OC(=O)C(c2ccccc2)c2ccccc2)C1 (centres undefined)	inactive: 5.23%
Clc1ccc(Cl)c(NC2=NCC(CBr)S2)c1 (centres undefined)	inactive: 10.4%
Cc1ccc(OP(=O)(Nc2nccs2)Oc2ccc(C)cc2)cc1	inactive: -0.18%
COc1ccccc1OP(=O)(Nc1ccc(C)cn1)Oc1ccccc1OC	inactive: 6.83%
Cc1ccc(N/C(=N/P(=O)(N2CCOCC2)N2CCOCC2)N2CCOCC2)cc1	inactive: 2.97%
CN(C(=O)Cc1ccc(Cl)c(Cl)c1)[C@H]1CCCC[C@H]1N1CCCC1	inactive: -22.3%
NC(=O)c1cc([N+](=O)[O-])cc([N+](=O)[O-])c1N	inactive: -27.4%
Nc1cccc2ccc([As](=O)(O)O)cc12	inactive: -12.4%
CCN(N=Nc1nonc1N)c1nonc1N	inactive: -6.72%
O=[N+]([O-])c1cc([N+](=O)[O-])c(CCN2CCOCC2)c([N+](=O)[O-])c1	inactive: 10.7%
CN(C(=O)Cc1ccc(Cl)c(Cl)c1)[C@H]1CCCC[C@@H]1N1CCCC1	inactive: -5.96%
Cc1ccc(NP(=O)(Oc2ccccc2F)Oc2ccccc2F)nc1	inactive: 1.61%
Cc1cc(SC(NC(=O)c2ccc(F)cc2)C(Cl)(Cl)Cl)ncn1 (centres undefined)	inactive: -1.21%
CCOP(=O)(Nc1ccccc1)OCC	inactive: 11%
O=P(Nc1nc2ccc(Cl)cc2s1)(c1ccccc1)c1ccccc1	inactive: -9.19%
CC(=O)Nc1ccc([As](=O)(O)O)cc1	inactive: -3.33%
O=C(O)CNc1ccc([As](=O)(O)O)cc1	inactive: 7.36%

Compound	inhibition
O=[N+]([O-])c1cccc(NC2=NCC(CBr)S2)c1 (centres undefined)	inactive: -0.3%
O=[N+]([O-])c1ncn(CCn2ncnc2[N+](=O)[O-])n1	inactive: 3.03%
CC(C)(C)C(=O)NC(Sc1ccncn1)C(Cl)(Cl)Cl (centres undefined)	inactive: 10.9%
O=C(Nc1cc([As](=O)(O)O)ccc1O)c1ccccc1	inactive: -13%
CC1CCN(C(=O)Oc2c(Cl)cc(Cl)c3cccnc23)CC1	inactive: -3.62%
CN(C)C(=O)OCCc1n(C)cc[n+]1C	inactive: -5.86%
CC(C)=N/N=C(\N)N[N+](=O)[O-]	inactive: 3.58%
CCN(/C(=N/P(=O)(N1CCOCC1)N1CCOCC1)N1CCOCC1)c1ccc(OC)cc1	inactive: -5.91%
C[N+]1=C2C=CC=CC=C2SC12C([N+](=O)[O-])=CC([N+](=O)[O-])=C[C-]2[N+](=O)[O-] (centres undefined)	inactive: 9.94%
Nc1ccc([As](=O)(O)c2ccc(N)cc2)cc1	inactive: 9.82%
O=[N+]([O-])c1cc([N+](=O)[O-])c(CCNc2ccccc2)c([N+](=O)[O-])c1	inactive: 1.03%
CCc1nc2c(n1)c1c(non1O)c1c2no[n+]1[O-]	inactive: -2.16%
Cc1ccc(NP(=O)(Oc2ccccc2)Oc2ccccc2)nc1	inactive: -1.38%
CC(=O)N1C2C3N(C(C)=O)C1C1N(C(C)=O)C(C(N1C(C)=O)N3C(C)=O)N2C(C)=O	inactive: -3.36%
O=[N+]([O-])c1cccc2n[nH]nc12	inactive: 13.4%
COc1ccc(C2=NCC(CBr)S2)cc1 (centres undefined)	inactive: 15.8%
c1nnnn1CCn1cnnn1	inactive: 3.73%
O=P(Nc1nccs1)(c1ccccc1)c1ccccc1	inactive: 6.1%
CC(C)C(=O)NC(Sc1ccccc1)C(Cl)(Cl)Cl (centres undefined)	inactive: -6.01%
O=C(OC1CN2CCC1CC2)c1cccc(Cl)c1 (centres undefined)	inactive: -3.51%
C(Cc1nn[nH]n1)Cc1nn[nH]n1	inactive: 4.02%
Nc1ccc([As](=O)(O)c2ccc([N+](=O)[O-])cc2)cc1	inactive: 1.79%

Compound	inhibition
O=[As](O)(c1ccccc1)c1ccc(O)cc1	inactive: -11.8%
O=[N+]([O-])c1ncn(CCn2cnc([N+](=O)[O-])n2)n1	inactive: 10.1%
CC(=O)NC(SC(=S)N(C)C)C(Cl)(Cl)Cl (centres undefined)	inactive: 1.73%
O=[N+]([O-])c1ccc(O)c(/C=N/Nc2ccc([N+](=O)[O-])cc2[N+](=O)[O-])c1	inactive: 2.54%
C[C@H]1OP(=O)(Oc2ccccc2)[C@H](O)[C@H](O)[C@H]1N=[N+]=[N-] (some centres undefined)	inactive: 3.65%
O=P(Nc1nc2ccccc2s1)(c1ccccc1)c1ccccc1	inactive: 12.7%
CN(C)C1(CNC(=O)c2ccc(Cl)c(S(N)(=O)=O)c2)CCCCC1	inactive: -8.42%
O=P(Nc1ccccn1)(c1ccc(Br)cc1)c1ccc(Br)cc1	inactive: -6.04%
CN(C)C(=O)Oc1noc2ccccc12	inactive: -1.95%
Cc1ccccc1OP(=O)(Nc1ccccn1)Oc1ccccc1C	inactive: 4.41%
CCC(=O)N1C2C3N(C(=O)CC)C1C1N(C(=O)CC)C(C(N1C(=O)CC)N3C(=O)CC)N2C(=O)CC	inactive: 5.46%
O=C(OC1CN2CCC1CC2)c1ccccc1 (centres undefined)	inactive: 5.73%
Cc1ccc(OP(=O)(Nc2ccccn2)Oc2ccc(C)cc2)cc1	inactive: -5.88%
CC(=O)NC(SC(=S)N(CC(C)C)CC(C)C)C(Cl)(Cl)Cl (centres undefined)	inactive: -1.4%
COC(=O)c1cc2c(s1)N=C(c1ccccc1)N(C)P2(=O)N1CCOCC1 (centres undefined)	inactive: 2.18%
CCOC(=O)NC(Sc1ccccc1)C(Cl)(Cl)Cl (centres undefined)	inactive: 3.89%
Cc1ccc(NP(=O)(Oc2cccc(C)c2)Oc2cccc(C)c2)nc1	inactive: -9.28%
c1ccc(-c2nn[nH]n2)c(-c2nn[nH]n2)c1	inactive: 2.68%
O=C(NC1CCS(=O)(=O)C1)NP(=S)(Oc1ccccc1)Oc1ccccc1 (centres undefined)	inactive: 4.32%
CCNC(=S)/N=C(\N)N[N+](=O)[O-]	inactive: 3.41%
